Results: article PMC3200564 (European journal of nuclear medicine and molecular imaging, 2011)

What was measured:
Ex vivo biodistribution = format: in vivo, mice; details: female, athymic nude, mouse, iv, 3.7 MBq, total radioactivity
In short: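 Female athymic nude mice carried UM-SCC1 xenografts (6×10^6 cells s.c., right front flank, PBS:Matrigel 1:1) grown to 200–500 mm3. Each received 3.7 MBq of the 18F-labeled test peptide i.v. under isoflurane. Mice were killed at 1 or 2 h p.i., right after imaging. Blood, tumor and organs were weighed wet and γ-counted against an aliquot of injected tracer, then normalized to group mean body mass. Results are %ID/g, means±SD, n=4/group.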

[1] = Small-animal PET imaging, ROI analysis; format: in vivo, mice; details: female, athymic nude, mouse, tumor (MDA-MB-435), iv, 3.7 MBq, total radioactivity
[2] = Small-animal PET imaging, ROI analysis; format: in vivo, mice; details: female, athymic nude, mouse, iv, 3.7 MBq, total radioactivity
In short: (§1)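 UM-SCC1 tumor-bearing nude mice (n=6) received 3.7 MBq (100 μCi) of the 18F-labeled test peptide i.v. under isoflurane. Static microPET scans were taken at 15, 30 and 60 min p.i. (5 min each) and at 2 h p.i. (10 min). ROI mean pixel values were converted to MBq/ml/min assuming tissue density of 1 g/ml. %ID/g was calculated as ROI concentration divided by administered activity.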

[3] = system: UM-SCC1 tumor-bearing mice; experiment: Small-animal PET imaging, ROI analysis; format: in vivo
In short: as §1

UM-SCC1 cells = experiment: Cell uptake and internalization of ^18F-FP-QQM; format: cell-based, human; details: for cell uptake with blocking, percentage of total input radioactivity: 37°C, in presence of 1 μM non-radiolabeled QQM peptide
In short: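 UM-SCC1 cells were seeded at 1×10^5 per well and grown overnight. They were then incubated at 37°C for 15, 30 or 60 min with about 37 kBq (1 μCi) per well of the 18F-labeled test peptide plus unlabeled test peptide (1 μM final) to block specific binding. Cells were washed three times with chilled PBS, lysed in 0.1 N NaOH and γ-counted. Uptake is given as % of decay-corrected total input. Two experiments, triplicate wells.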

**Q.** Which tissue uptake at 1 h (Ex vivo biodistribution; kidneys) does the source give for `CC[C@H](C)[C@H](NC(=O)[C@H](Cc1ccc(O)cc1)NC(=O)[C@H](CC(C)C)NC(=O)[C@@H]1CCCN1C(=O)[C@H](CC(C)C)NC(=O)[C@H](CCCNC(=N)N)NC(=O)[C@H](CC(=O)O)NC(=O)[C@H](CC(N)=O)NC(=O)[C@H](Cc1ccc(O)cc1)NC(=O)[C@@H](N)CCCCNC(=O)C(C)F)C(=O)N[C@@H](CO)C(=O)N[C@@H](CC(N)=O)C(=O)N1CCC[C@H]1C(=O)O` (some centres unmarked) [^18F-FP-QQM] here?
**A.** 5.21 ± 2.67 %ID/g

**Q.** What about the tissue uptake at 1 h (Ex vivo biodistribution; lung) of the same compound?
**A.** 3.19 ± 1.44 %ID/g

**Q.** And the tissue uptake at 1 h (Ex vivo biodistribution; pancreas)?
**A.** 5.24 ± 2.66 %ID/g

**Q.** What about the tissue uptake at 1 h (Ex vivo biodistribution; tumor (UM-SCC1)) of the same compound?
**A.** 3.45 ± 0.95 %ID/g

**Q.** And the tissue uptake at 2 h (Ex vivo biodistribution; tumor (UM-SCC1))?
**A.** 2.03 ± 0.29 %ID/g

**Q.** What about the tissue uptake at 0.5 h [1] of the same compound?
**A.** 1.64 ± 0.24 %ID/g

**Q.** And the tissue uptake at 1 h [1]?
**A.** 1.38 ± 0.56 %ID/g

**Q.** And the tissue uptake at 0.25 h ([2]; kidney)?
**A.** 16.4 ± 2.69 %ID/g

**Q.** And the tissue uptake at 0.5 h ([2]; kidney)?
**A.** 11.4 ± 5.7 %ID/g

**Q.** What about the tissue uptake at 1 h ([2]; kidney) of the same compound?
**A.** 6 ± 2.92 %ID/g

**Q.** And the tissue uptake at 2 h ([2]; kidney)?
**A.** 2.06 ± 0.36 %ID/g

**Q.** And the tissue uptake at 0.25 h ([2]; liver)?
**A.** 8.47 ± 1.19 %ID/g

**Q.** What about the tissue uptake at 0.5 h ([2]; liver) of the same compound?
**A.** 4.23 ± 3.2 %ID/g

**Q.** What about the tissue uptake at 1 h ([2]; liver) of the same compound?
**A.** 3.84 ± 2.49 %ID/g

**Q.** And the tissue uptake at 2 h ([2]; liver)?
**A.** 1.63 ± 0.51 %ID/g

**Q.** And the tissue uptake at 0.5 h ([2]; tumor (UM-SCC1))?
**A.** 3.73 ± 0.56 %ID/g

**Q.** What about the tissue uptake at 1 h ([2]; tumor (UM-SCC1)) of the same compound?
**A.** 2.96 ± 0.84 %ID/g

**Q.** And the “bone uptake (defluoridation)” value ([3]; PET imaging up to 120 min p.i.)?
**A.** No bone uptake was observed

**Q.** And the route of excretion ([3]; PET imaging, i.v. injection)?
**A.** predominantly renal clearance; also recorded: excreted mainly through the renal/urinary route

**Q.** And the “cell uptake with blocking, percentage of total input radioactivity” value (“cell uptake with blocking, percentage” for short) (UM-SCC1 cells; 15 min)?
**A.** 0.48±0.06%

**Q.** What about the “cell uptake with blocking, percentage” value (UM-SCC1 cells; 30 min) of the same compound?
**A.** 0.63±0.07%

**Q.** What about the “cell uptake with blocking, percentage” value (UM-SCC1 cells; 60 min) of the same compound?
**A.** 1.08±0.13%

**Q.** And the internalization into cells (UM-SCC1 cells; acid wash (50 mM glycine-HCl/100 mM NaCl, pH 2.8), after 15 min incubation at 37°C)?
**A.** almost completely internalized

Entries after “also recorded” stand apart in the source; their conditions may differ.
